Experimental findings from PMC5646861, “Structural and functional analysis of SMO-1, the SUMO homolog in Caenorhabditis elegans” (PLoS ONE, 2017) are described below.

Protein sequences, listed by entry. Tags and fused reporters are not part of them. Lines headed by an entry give the natural chain unless they say otherwise; changes in a name come on top. Residues count along the entry.
UniProt P29590, 547-573: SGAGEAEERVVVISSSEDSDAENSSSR
UniProt P19893: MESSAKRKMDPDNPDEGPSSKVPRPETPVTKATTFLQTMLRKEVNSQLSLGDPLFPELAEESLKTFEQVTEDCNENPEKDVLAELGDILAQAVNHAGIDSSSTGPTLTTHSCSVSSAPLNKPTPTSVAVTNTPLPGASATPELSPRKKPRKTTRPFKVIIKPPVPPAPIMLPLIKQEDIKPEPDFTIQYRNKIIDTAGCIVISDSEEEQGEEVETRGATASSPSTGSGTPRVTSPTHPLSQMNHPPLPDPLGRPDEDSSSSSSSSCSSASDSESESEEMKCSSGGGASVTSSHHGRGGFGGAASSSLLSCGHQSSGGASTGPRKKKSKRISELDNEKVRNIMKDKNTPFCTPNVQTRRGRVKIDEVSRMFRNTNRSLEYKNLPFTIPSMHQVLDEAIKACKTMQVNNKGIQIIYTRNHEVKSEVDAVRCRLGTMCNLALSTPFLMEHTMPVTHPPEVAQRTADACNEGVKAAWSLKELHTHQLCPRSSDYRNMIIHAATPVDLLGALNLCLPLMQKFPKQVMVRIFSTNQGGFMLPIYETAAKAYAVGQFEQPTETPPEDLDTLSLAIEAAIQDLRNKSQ

For assay [1], the target named is PML SIM (Homo sapiens) (UniProt P29590).
Assay [2] has as its target IE2 SIM (Human cytomegalovirus) (UniProt P19893).

For orientation: Kd means the constant that tells how readily two partners part at equilibrium. Higher therefore signals lower affinity. On to SMO-1 (from UniProt P55853), for which the Kd in assay [1] and in assay [2] was 100 µM each time.
